The source of these data is patent publication US12509463B2, “JAK inhibitor and preparation method therefor” (FELICAMED BIOTECHNOLOGY CO., LTD., priority 2019, dated 2025).

The chains behind the UniProt entries cited, without tags or fusion partners. Residues count along the entry.
UniProt P23458, 866-1154 limits assumed: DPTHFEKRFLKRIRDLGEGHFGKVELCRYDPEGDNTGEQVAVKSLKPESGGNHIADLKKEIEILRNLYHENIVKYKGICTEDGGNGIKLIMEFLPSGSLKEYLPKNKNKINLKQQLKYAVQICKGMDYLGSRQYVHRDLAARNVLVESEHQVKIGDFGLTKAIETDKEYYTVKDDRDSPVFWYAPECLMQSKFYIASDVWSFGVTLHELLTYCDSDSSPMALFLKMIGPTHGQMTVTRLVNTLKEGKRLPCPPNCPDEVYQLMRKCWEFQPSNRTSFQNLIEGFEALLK

One may read the IC50 as the concentration at which inhibition is half-maximal.

Bounds are passed on as bounds.

The first test has as its target JAK1 (Homo sapiens, UniProt P23458). Briefly: JAK1 enzymology experiment (HTRF KinEASE-TK). It counts as biochemical. Conditions: read-out: Relative IC50; JAK1 enzyme activity, 10 uM ATP, 19.76 nM JAk1, 30 min at 25° C., HTRF 665/615.
For `CN(c1ncnc2[nH]ccc12)[C@H]1CC[C@@H](CS(C)(=N)=O)CC1` (stereo partly shown), the IC50 was less than 100 nM.

In the case of `CN(c1ncnc2[nH]ccc12)[C@H]1CC[C@H](CS(C)(=N)=O)CC1` (stereo partly shown), the IC50 was less than 100 nM.

The subject of a further test is Canine PBMC cells. In words: IL-2 and ConA induced proliferation of canine PBMC cells (flow cytometry, CD4+ population). Particulars: read-out: Cell IC50, CFSE stained, IL-2 and concanavalin A, 120 h, MFI of CD4+ population.
`CN(c1ncnc2[nH]ccc12)[C@H]1CC[C@@H](CS(C)(=N)=O)CC1` (stereo partly shown): the IC50 is less than 1000 nM.

Turning to `CN(c1ncnc2[nH]ccc12)[C@H]1CC[C@H](C[S@@](=N)(=O)CC2CC2)CC1`, the IC50 was greater than 5000 nM.

Turning to `CN=S(C)(=O)C[C@H]1CC[C@H](N(C)c2ncnc3[nH]ccc23)CC1` (stereo partly shown), the IC50 was less than 1000 nM.

For `CN(c1ncnc2[nH]ccc12)[C@H]1CC[C@H](C[S@](=N)(=O)CC2CC2)CC1`, the IC50 was greater than 5000 nM.

Regarding `CN=S(C)(=O)C[C@H]1CC[C@@H](N(C)c2ncnc3[nH]ccc23)CC1` (stereo partly shown), the IC50 is less than 1000 nM.
